Laboratory results as given in ChEMBL document CHEMBL2384966, “Probes for narcotic receptor mediated phenomena. 47. Novel C4a- and N-substituted-1,2,3,4,4a,9a-hexahydrobenzofuro[2,3-c]pyridin-6-ols” (Bioorg Med Chem, 2013).

Sequences of proteins named here, by UniProt entry; tags and fusion partners are left off. A change or cut given only in a name is not applied to a line headed by its entry.
UniProt P35372, whole entry: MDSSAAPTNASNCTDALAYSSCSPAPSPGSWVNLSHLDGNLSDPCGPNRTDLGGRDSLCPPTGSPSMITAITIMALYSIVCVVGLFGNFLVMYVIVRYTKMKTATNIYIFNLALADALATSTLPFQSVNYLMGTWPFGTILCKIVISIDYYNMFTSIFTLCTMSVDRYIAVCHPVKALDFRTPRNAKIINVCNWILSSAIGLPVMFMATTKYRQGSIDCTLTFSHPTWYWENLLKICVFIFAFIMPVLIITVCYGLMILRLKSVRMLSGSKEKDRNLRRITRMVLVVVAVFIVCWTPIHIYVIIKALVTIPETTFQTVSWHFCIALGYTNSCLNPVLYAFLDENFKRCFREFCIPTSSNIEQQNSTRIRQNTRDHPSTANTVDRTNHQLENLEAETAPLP
UniProt P41145: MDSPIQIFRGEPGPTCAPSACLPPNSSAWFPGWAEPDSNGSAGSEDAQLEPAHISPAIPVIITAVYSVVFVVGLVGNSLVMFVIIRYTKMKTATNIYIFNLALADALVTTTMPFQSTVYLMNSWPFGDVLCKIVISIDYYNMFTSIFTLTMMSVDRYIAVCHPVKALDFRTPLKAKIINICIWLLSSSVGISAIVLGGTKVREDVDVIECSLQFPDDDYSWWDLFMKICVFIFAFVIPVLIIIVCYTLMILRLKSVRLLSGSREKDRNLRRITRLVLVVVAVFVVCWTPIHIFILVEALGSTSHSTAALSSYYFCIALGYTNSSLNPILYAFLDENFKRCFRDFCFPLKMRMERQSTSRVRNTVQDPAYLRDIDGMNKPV

Columns and labels:
Mu-type opioid receptor = Mu-type opioid receptor (Homo sapiens, UniProt P35372); assay: Partial agonist activity at human recombinant mu opioid receptor expressed in CHO cell membranes assessed as stimulation of [35S]GTPgammaS binding after 3 hrs by liquid scintillation counting analysis relative to DAMGO; assay type: functional, cell-based
[1] = biological target: Kappa-type opioid receptor (Homo sapiens, UniProt P41145); assay: Partial agonist activity at human recombinant kappa opioid receptor expressed in CHO cell membranes assessed as stimulation of [35S]GTPgammaS binding after 3 hrs by liquid scintillation counting analysis relative to (-)-U50,488; assay type: functional, cell-based

| Structure (SMILES) | Emax (Mu-type opioid receptor) | Emax [1] |
| --- | --- | --- |
| Oc1ccc2c(c1)[C@]1(CCc3ccccc3)CCN(CCc3ccccc3)C[C@@H]1O2 (relative stereo) | 75% | – |
| Oc1ccc2c(c1)[C@]1(CCc3ccccc3)CCN(CCc3ccc(C(F)(F)F)cc3)C[C@@H]1O2 (relative stereo) | 60% | – |
| Oc1ccc2c(c1)[C@]1(CCc3ccccc3)CCN(CCc3ccccc3F)C[C@@H]1O2 (relative stereo) | 82% | – |
| Oc1ccc2c(c1)[C@]1(CCc3ccccc3)CCN(CC3CC3)C[C@@H]1O2 (relative stereo) | – | 18% |
| Oc1ccc2c(c1)[C@]1(CCc3ccccc3)CCN(CCc3ccc(F)cc3)C[C@@H]1O2 (relative stereo) | 43% | – |
